We go through one molecule from article PMC5489263 (Science Advances, 2017).

The chains behind the UniProt entries cited, without tags or fusion partners.
UniProt A0A1D8PTB4, entry or part of it: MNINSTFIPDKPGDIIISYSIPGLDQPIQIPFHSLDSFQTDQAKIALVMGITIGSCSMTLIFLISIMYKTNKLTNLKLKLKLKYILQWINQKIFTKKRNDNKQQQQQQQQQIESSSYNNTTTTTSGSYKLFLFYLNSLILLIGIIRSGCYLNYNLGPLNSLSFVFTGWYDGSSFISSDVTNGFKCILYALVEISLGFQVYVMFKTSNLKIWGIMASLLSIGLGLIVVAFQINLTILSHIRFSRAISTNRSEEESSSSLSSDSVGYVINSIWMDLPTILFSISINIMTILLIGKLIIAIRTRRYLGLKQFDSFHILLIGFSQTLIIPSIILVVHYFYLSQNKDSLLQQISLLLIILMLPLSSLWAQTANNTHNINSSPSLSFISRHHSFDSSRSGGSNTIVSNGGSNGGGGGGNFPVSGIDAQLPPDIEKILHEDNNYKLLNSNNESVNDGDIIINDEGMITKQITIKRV

Molecules are shown by their SMILES.

Broadly, the EC50 is the concentration giving half of the maximal effect. A low value points to a more potent agent.

This assay deals with C. albicans mating receptor (Ca.Ste2) (Candida albicans, UniProt A0A1D8PTB4). Kind of assay: cell-based.

Molecule `CC(C)C[C@H](NC(=O)[C@H](CCCNC(=N)N)NC(=O)[C@H](Cc1ccccc1)NC(=O)CN)C(=O)N[C@H](C(=O)N[C@@H](CC(N)=O)C(=O)N[C@@H](Cc1ccccc1)C(=O)NCC(=O)N[C@@H](Cc1ccc(O)cc1)C(=O)N[C@@H](Cc1ccccc1)C(=O)N[C@@H](CCC(=O)O)C(=O)N1CCC[C@H]1C(=O)NCC(=O)O)[C@@H](C)O` [C. albicans mating peptide] showed an EC50 of 4.2 nM.
